Literature values in publication PMC7160673, “A Degenerate Peptide Library Approach to Reveal Sequence Determinants of Methyllysine-Driven Protein Interactions” (Frontiers in Cell and Developmental Biology, 2020).

The chains behind the UniProt entries cited, without tags or fusion partners. Residues count along the entry.
UniProt Q99549, 56-121: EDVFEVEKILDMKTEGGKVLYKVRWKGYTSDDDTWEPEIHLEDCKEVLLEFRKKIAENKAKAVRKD

Biological target: histone H3K9me3 peptide 1-20 (Homo sapiens) (UniProt P68431)
Details: cited from earlier work

**Q.** For MPP8 chromodomain (from UniProt Q99549), which Kd is on record?
**A.** Its Kd is 230 nM.
